Assay results: PMC6499816, “Molecular determinants regulating selective binding of autophagy adapters and receptors to ATG8 proteins” (Nature Communications, 2019)

The chains behind the UniProt entries cited, without tags or fusion partners. Where a name states a change or a piece, a line headed by the entry shows the natural chain unless it says otherwise.
UniProt Q9BXW4: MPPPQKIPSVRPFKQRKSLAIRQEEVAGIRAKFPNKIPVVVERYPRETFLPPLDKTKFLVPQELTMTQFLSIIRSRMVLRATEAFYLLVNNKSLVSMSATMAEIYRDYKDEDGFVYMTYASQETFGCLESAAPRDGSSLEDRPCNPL
UniProt Q9H0R8, whole entry: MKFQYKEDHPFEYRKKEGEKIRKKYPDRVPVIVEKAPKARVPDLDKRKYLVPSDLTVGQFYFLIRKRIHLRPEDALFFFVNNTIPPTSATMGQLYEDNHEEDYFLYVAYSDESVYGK
UniProt P60520, whole entry: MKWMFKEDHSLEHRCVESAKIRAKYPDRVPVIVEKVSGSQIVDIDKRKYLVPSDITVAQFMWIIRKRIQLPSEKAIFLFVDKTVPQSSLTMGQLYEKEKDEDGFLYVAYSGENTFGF

Columns and labels:
[1] = biological target: T1, GABARAP (Homo sapiens, UniProt O95166); experiment: BLI, LIR peptide binding to GABARAP; conditions: n=2 independent experiments
T1 construct: GST (followed by 3C protease site) (N); made in house; host or cells: bacteria (E. coli BL21 (DE3) pLysS is stated for the GST-ATG8 proteins of the overlay assay)
Protocol: (§1) For recombinant protein expression in bacteria, a modified plasmid of pGEX-6P2 (GE Healthcare) (referred to as pAL) containing an N-terminal […] followed by a 3C protease cleavage site was used.
(§2) Expression was induced by the addition of 0.5 mM IPTG at OD600 = 0.6 and cells were incubated at 25 °C overnight or at 37 °C for 5 h. Harvested cells were lysed in 50 mM Tris-HCl, pH 8.0, 500 mM NaCl, 0.1% Triton X-100, 0.4 mM 4-(2-aminoethyl)-benzenesulfonylfluoride HCl (AEBSF), and 15 µg/ml benzamidine. Fusion protein was batch adsorbed onto Glutathione-Sepharose 4B beads (GE Healthcare). After five washes with wash buffer (50 mM Tris, pH 8.0, 250 mM NaCl, 0.4 mM AEBSF, and 15 µg/ml benzamidine), fusion proteins were eluted in 50 mM Tris, pH 8.0, 2 mM L-glutathione reduced, 0.4 mM AEBSF, and 15 µg/ml benzamidine.
(§3) The biosensor tip surface immobilized with a ligand is incubated with an analyte in solution, resulting in an increase in optical thickness at the biosensor tip and a wavelength shift, which is a direct measure of the change in thickness. […] Ligand-loaded SA biosensors were then incubated with different concentrations of ATG8. All binding experiments were performed in solid-black 96-well plates containing 200 μl of solution (25 mM Tris, pH 7.5, 150 mM NaCl, 0.5 mM TCEP, 0.1% Tween-20, 1 mg/ml bovine serum albumin (BSA)) in each well at 25 °C with an agitation speed of 1000 rpm. Each measurement was repeated two to five times.
(§4) Peptides were synthesized using FMOC (fluorenylmethoxycarbonyl) solid-phase peptide chemistry by the Francis Crick Peptide Chemistry Technology Platform and are listed in Supplementary Table 2.

[2] = biological target: T2, LC3A (Homo sapiens, UniProt Q9H492); experiment: Bio-layer interferometry (BLI), LIR peptide binding to LC3A; conditions: n=2 independent experiments
T2 construct: GST (followed by 3C protease site) (N); made in house; host or cells: bacteria (E. coli BL21 (DE3) pLysS is stated for the GST-ATG8 proteins of the overlay assay)
Protocol: as §1, §2, §3, §4

[3] = biological target: T3, LC3B (Homo sapiens, UniProt Q9GZQ8); experiment: BLI, LIR peptide binding to LC3B; conditions: n=2 independent experiments
T3 construct: GST (followed by 3C protease site) (N); made in house; host or cells: bacteria (E. coli BL21 (DE3) pLysS is stated for the GST-ATG8 proteins of the overlay assay)
Protocol: as §1, §2, §3, §4

[4] = biological target: T4, LC3C (Homo sapiens, UniProt Q9BXW4); experiment: BLI, LIR peptide binding to LC3C; conditions: fit of response vs LC3C concentration, n=2 independent experiments
T4 construct: GST (followed by 3C protease site) (N); made in house; host or cells: bacteria (E. coli BL21 (DE3) pLysS is stated for the GST-ATG8 proteins of the overlay assay)
Protocol: as §1, §2, §3, §4

[5] = biological target: T5, GABARAPL1 (Homo sapiens, UniProt Q9H0R8); experiment: BLI, LIR peptide binding to GABARAPL1; conditions: n=2 independent experiments
T5 construct: GST (followed by 3C protease site) (N); made in house; host or cells: bacteria (E. coli BL21 (DE3) pLysS is stated for the GST-ATG8 proteins of the overlay assay)
Protocol: as §1, §2, §3, §4

[6] = biological target: T6, GABARAPL2 (Homo sapiens, UniProt P60520); experiment: BLI, LIR peptide binding to GABARAPL2; conditions: n=2 independent experiments
T6 construct: GST (followed by 3C protease site) (N); made in house; host or cells: bacteria (E. coli BL21 (DE3) pLysS is stated for the GST-ATG8 proteins of the overlay assay)
Protocol: as §1, §2, §3, §4

[7] = biological target: T7, GABARAP K24Q/Y25H/Q59E/F60L (Homo sapiens, UniProt O95166, F60L/K24Q/Q59E/Y25H); experiment: BLI, LIR peptide binding to GABARAP K24Q/Y25H/Q59E/F60L; conditions: best-fit value of BLI response; ATG13 WT LIR peptide; n=2
T7 construct: GST (followed by 3C protease site) (N); made in house
Protocol: as §1, §3, §4

[8] = biological target: T8, LC3B E62Q (Homo sapiens, UniProt Q9GZQ8, E62Q); experiment: BLI, LIR peptide binding to LC3B E62Q; conditions: best-fit value of BLI response; ATG13 WT LIR peptide; n=2
T8 construct: GST (followed by 3C protease site) (N); made in house
Protocol: as §1, §3, §4

[9] = biological target: T9, LC3B Q26K/H27Y/E62Q (Homo sapiens, UniProt Q9GZQ8, E62Q/H27Y/Q26K); experiment: BLI, LIR peptide binding to LC3B Q26K/H27Y/E62Q; conditions: best-fit value of BLI response; ATG13 WT LIR peptide; n=2
T9 construct: GST (followed by 3C protease site) (N); made in house
Protocol: as §1, §3, §4

Compound: CC[C@H](C)[C@H](NC(=O)[C@@H](NC(=O)[C@H](CC(C)C)NC(=O)[C@H](CCCCN)NC(=O)[C@H](CC(C)C)NC(=O)[C@@H]1CCCN1C(=O)[C@H](CC(C)C)NC(=O)[C@H](CC(=O)O)NC(=O)[C@H](CCC(=O)O)NC(=O)[C@@H](NC(=O)[C@@H](NC(=O)[C@@H](NC(=O)[C@H](Cc1ccccc1)NC(=O)[C@H](CC(=O)O)NC(=O)[C@H](CCC(=O)O)NC(=O)[C@H](CCC(=O)O)NC(=O)[C@H](CC(=O)O)NC(=O)[C@H](CO)NC(=O)[C@H](CCCCN)NC(=O)[C@H](CCC(N)=O)NC(=O)[C@@H](N)CO)C(C)C)[C@@H](C)CC)C(C)C)[C@@H](C)O)C(=O)O [PCM1 K1967I]
- Kd ([1]; Fig. 4c, fit of response vs GABARAP concentration, read-out: Kd (best-fit value)): 166 nM

Compound: CSCC[C@H](NC(=O)[C@@H](NC(=O)[C@@H](N)Cc1ccccc1)C(C)C)C(=O)N[C@H](C(=O)N1CCC[C@H]1C(=O)N[C@@H](C)C(=O)N[C@@H](CCC(N)=O)C(=O)N[C@@H](Cc1ccccc1)C(=O)N1CCC[C@H]1C(=O)NCC(=O)N[C@@H](CC(=O)O)C(=O)N[C@@H](CC(C)C)C(=O)N[C@H](C(=O)O)C(C)C)C(C)C [ULK1 (aa 357-369)]
- Rmax (best-fit value) ([2]; fit of response vs LC3A concentration): 1.233
- Rmax (best-fit value) ([3]; fit of response vs LC3B concentration): 0.7857
- Rmax (best-fit value) [4]: 0.6543
- Rmax (best-fit value) ([1]; fit of response vs GABARAP concentration): 0.1167
- Rmax (best-fit value) ([5]; fit of response vs GABARAPL1 concentration): 0.5113
- Rmax (best-fit value) ([6]; fit of response vs GABARAPL2 concentration): 0.3039

Compound: CC[C@H](C)[C@H](NC(=O)[C@H](CCSC)NC(=O)[C@@H](NC(=O)[C@H](Cc1ccccc1)NC(=O)[C@H](CC(=O)O)NC(=O)[C@H](CC(=O)O)NC(=O)[C@H](Cc1c[nH]cn1)NC(=O)[C@@H](NC(=O)[C@H](CC(N)=O)NC(=O)CNC(=O)[C@H](CO)NC(=O)[C@@H](N)CO)[C@@H](C)O)C(C)C)C(=O)N[C@@H](CC(=O)O)C(=O)N[C@@H](Cc1ccccc1)C(=O)N[C@@H](CCCCN)C(=O)N1CCC[C@H]1C(=O)N[C@@H](C)C(=O)N[C@@H](Cc1ccccc1)C(=O)N[C@@H](CO)C(=O)N[C@@H](CCCCN)C(=O)N[C@@H](CC(=O)O)C(=O)O [ATG13 WT]
- Rmax (best-fit value, theoretical response maxium) ([2]; non linear regression): 2.009
- Rmax (best-fit value, theoretical response maxium) ([3]; non linear regression): 0.9081
- Rmax (best-fit value, theoretical response maxium) ([1]; non linear regression): 2.77
- Rmax (best-fit value, theoretical response maxium) ([5]; non linear regression): 2.913
- Rmax (best-fit value, theoretical response maxium) ([6]; non linear regression): 2.445
- Rmax [7]: 1.459
- Rmax [8]: 1.801
- Rmax [9]: 2.477
